{
  "sequences": {"note": "Sequences of proteins named here, by UniProt entry; tags and fusion partners are left off.", "UniProt P30542, whole entry": "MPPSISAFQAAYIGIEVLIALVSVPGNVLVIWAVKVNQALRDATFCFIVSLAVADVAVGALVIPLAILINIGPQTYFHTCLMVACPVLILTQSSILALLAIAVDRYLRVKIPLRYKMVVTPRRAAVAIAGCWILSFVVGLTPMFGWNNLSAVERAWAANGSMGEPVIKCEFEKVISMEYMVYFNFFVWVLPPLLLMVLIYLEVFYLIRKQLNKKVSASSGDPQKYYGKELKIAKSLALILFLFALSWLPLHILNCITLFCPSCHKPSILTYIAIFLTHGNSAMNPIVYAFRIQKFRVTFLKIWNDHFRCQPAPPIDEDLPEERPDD"},
  "source": "paper PMC12155840",
  "about": "(Molecules, 2025)",
  "target": "human A1 adenosine receptor (hA1R) (Homo sapiens, UniProt P30542)",
  "test": "cAMP inhibition assay, direct agonist mode, in CHO-K1-hA1R cells (Cisbio cAMP Gi kit, forskolin co-stimulation)",
  "conditions": "DPCPX 1 μM, with Ze 911 extract, 1 μM forskolin",
  "data": [
    {"compound": "CCCn1c(=O)c2[nH]c(C3CCCC3)nc2n(CCC)c1=O", "note": "[DPCPX, reference compound]", "values": [
      {"measurement": "Effect of antagonist on Ze 911-induced inhibition of cAMP formation", "value": "effectively blocked"}
    ]}
  ]
}
